For the data set the following is noted: in Tetrafluoropropanol, 25°C.

The structures appear in SMILES notation.

A word on the Solubility: it is the concentration that dissolves in the medium under given conditions. Read a high Solubility as much dissolved substance. As for `CC[n+]1ccccc1N=CC1C(=O)NC(=O)NC1=O` [Example 1], the Solubility turned out to be 20 mg/mL.

The values above are taken from patent EP1624029A1, “New Pyridinium imine based dyes and their use in optical layers for optical data recording” (CLARIANT INTERNATIONAL LTD., priority 2004, dated 2006).
